Data published in patent US8012466B2, “Immunogenic compositions for activating γδ T cells” (priority 2008, dated 2011).

Key:
Vγ2Vδ2 T cell clone [1] = settings: cited from earlier work
Vγ2Vδ2 T cells = assay: Expansion of Vγ2Vδ2 T cells in PBMC by nonpeptide antigens; settings: 0.316 μM HMBPP; day 7; normal donors
Vγ2Vδ2 T cell clone [2] = system: Vγ2Vδ2 T cell clone
Vγ2Vδ2 T cell clone [3] = type: cell-based, human; settings: fosmidomycin added to culture (dxr inhibitor)
Vγ2Vδ2 T cell clone [4] = assay: cells; settings: Homo sapiens, 48 h, read-out: half-maximal proliferation

CC(C=O)CCOP(=O)(O)OP(=O)(O)O (stereo not drawn) [3-FBPP, 3-formyl-1-butyl pyrophosphate]
biological activity for Vγ2Vδ2 T cells (Vγ2Vδ2 T cell clone [1]): only low to moderate activity

C/C(=C\COP(=O)(O)OP(=O)(O)O)CO [HMBPP, (E)-4-hydroxy-3-methyl-but-2-enyl pyrophosphate]
expansion of Vγ2Vδ2 T cells in PBMC (Vγ2Vδ2 T cells): stimulated the expansion of Vγ2Vδ2 T cells from normal donors | fold more antigenic than bromohydrin pyrophosphate (Vγ2Vδ2 T cell clone [2]; Vγ2Vδ2 T cell clones): 100-300 fold | pEC50 (Vγ2Vδ2 T cell clone [2]; read-out: half-maximal proliferation, AC.2 and DG.SF68 clones, 48 h, mitomycin C-treated Va-2 cells): 10.44

O=CN(O)CCCP(=O)(O)O [fosmidomycin]
effect on elevated bioactivity of LytB^G120D mutant bacteria (Vγ2Vδ2 T cell clone [3]): reduced to wild-type levels

C=C(C)CCO[P@@](=O)(O)OP(=O)(O)O [IPP, isopentenyl pyrophosphate]
pEC50 (Vγ2Vδ2 T cell clone [4]): 6.00

pEC50: −log10 of the molar value. Where two headings read alike, the source gives them in different places.
